# Literature values, collected in publication PMC7472518, “Ultrasensitive Detection of Enzymatic Activity Using Single Molecule Arrays” (Journal of the American Chemical Society, 2020).
# Target: Bcr-Abl
# Conditions: read-out: Ki (reported); protein-ligand binding experiments; cited from earlier work
smiles,measurement,value
Cc1nc(Nc2ncc(C(=O)Nc3c(C)cccc3Cl)s2)cc(N2CCN(CCO)CC2)n1,Ki,0.03 ± 0.022 nM
